Shown are actives, neighbours in structure and some others; about 2.3% of the full set was active somewhere.
A549 viability: counter-screen for Nrf2 inhibitors: cytotoxicity in A549 cells. 390,000 tested, 0.16% active. A549 ARE-Fluc cells, CellTiter-Fluor viability, 18-24 h. Potency, µM (highest dose often 46 µM), for the others: at the top dose activity change, negative = cytotoxicity, usual class: inhibitors; also: potency is read from the fitted curve at half-maximal effect; % is scaled to controls: 0 for no effect and ±100 for the full control effect
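A549 ARE-Fluc cells in 5% FBS OPTI-MEM, 5000 cells/well, rested 2 h then exposed to compounds in concentration-response for 18-24 h at 37 °C. Viability by CellTiter-Fluor fluorescence (Ex 405/Em 525) after 30 min; luciferase luminescence (BugLite, 15 min, RT) read afterwards.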
Nrf2 block: blocks Nrf2 signaling; A549 ARE-Fluc reporter, luciferase luminescence, 18-24 h; Potency, µM (top dose mostly 46 µM), for the others: at the top dose activity change, negative = inhibition, hits mostly inhibitors; 360,000 tested, 2.1% active; AID 504444; also: potency is read from the fitted curve at half-maximal effect; % is scaled to controls: 0 for no effect and ±100 for the full control effect; nearly all actives have a fitted effect of over 60% in size
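Nrf2 activity is the BugLite luminescence, read 15 min after reagent at room temperature, following CellTiter-Fluor cytotoxicity readout (30 min, 37C). Compound titrations were applied for 18-24 h to 5000 A549 ARE_Fluc cells/well in 5% FBS OPTI-MEM.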
Mito fusion act: inhibitors of mitochondrial division or activators of mitochondrial fusion | S. cerevisiae fusion-defective mutant growth rescue, CellTiterGlo 48 h | Potency, µM (doses to about 46.1 µM), for the others: top-dose growth rescue (activation), hits mostly activators | 320,000 tested, 0.23% active; also: potency is read from the fitted curve at half-maximal effect; % of control where 0% means no effect; nearly all actives have a fitted effect of over 45% in size
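Growth-rescue viability read-out: after 48 h at the non-permissive 37C in glycerol/ethanol YPEG, yeast mitochondrial fusion mutants are measured by CellTiterGlo luminescence; compounds (23 nl pinned per well) restoring growth score as division inhibitors or fusion activators.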
Nrf2 ARE act: activators of Nrf2 (ARE) signaling; AID 624171; Potency, µM (doses to about 46.1 µM), inactives show at the top dose activation, hits mostly activators; 410,000 tested, 0.31% active; AREc32 ARE-luciferase reporter (MCF7-derived line), luminescence, 24 h; also: potency is read from the fitted curve at half-maximal effect; % of control where 0% means no effect; nearly all actives have a fitted effect of over 65% in size
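Reporter line AREc32 (ARE-Fluc), seeded overnight in OPTI-MEM with 5% FBS; compound pin-transferred, 24 hr at 37 deg C, 5% CO2; luminescent read-out.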
miR-21 reporter: miR-21 reporter, rising signal; Potency, µM (titrated, usually from 38.3 µM), without a hit: at the highest dose reporter change, positive = more light; AID 2288; 340,000 tested, under 10 active; HeLa miR-21 FLuc reporter, luciferase, 48 h; active = well fitted rising curve with a large enough effect; inconclusive = small, poorly fitted or top-dose-only effect; inactive = no such curve, though single readings can be large or run the other way;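 note: % of control where 0% means no effect; miR-21 action dims this reporter so a rising signal means less miR-21 action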
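Compounds were titrated across several concentrations (up to approximately 40 uM) and incubated 48 hours with HeLa miR-21-FLuc reporter cells (miR-21 target sequence downstream of FLuc, endogenous miR-21). Readout was firefly luciferase luminescence after lytic detection reagent.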
The depositor's hits bear a star; ? = inconclusive; nt = no result given. Unless noted, calls follow the shape of the dose curve; as a rule, active = well fitted curve in the direction sought with a large enough effect; inconclusive = small, poorly fitted or top-dose-only effect, or another doubt; inactive = no such curve, though single readings can be large; an effect the other way counts as inactive or inconclusive.

Screens by letter – A = A549 viability; B = Nrf2 block; C = Mito fusion act; D = Nrf2 ARE act; E = miR-21 reporter
> Cc1cc(C)c(Cn2c(=O)n(CCC(=O)NCCc3ccccc3)c(=O)c3ccccc32)c(C)c1
  A: 0% | B: 2% | C: nt | D: -1% | E: -2%

> CCS(=O)(=O)c1nc(S(=O)(=O)c2ccc(Cl)cc2)c(N2CCOCC2)s1
  A: 5% | B: -10% | C: -14% | D: ? | E: 6%

> CCS(=O)(=O)c1nc(S(=O)(=O)c2ccc(Cl)cc2)c(N2CCC3(CC2)OCCO3)s1
  A: 2% | B: 6% | C: -2% | D: 11µM* | E: 7%

> CS(=O)(=O)c1nc(S(=O)(=O)c2ccc(Cl)cc2)c(N2CCC3(CC2)OCCO3)s1
  A: -4% | B: ? | C: -1% | D: 10µM* | E: 9%

> CCOc1ccc(OCC)c(Nc2nc3ccc(C(=O)c4ccccc4)cc3n3cnnc23)c1
  A: 0% | B: 11% | C: nt | D: 0% | E: -3%

> CCN1C(=O)/C(=C\c2ccco2)C(C(=O)OC)=C1C
  A: -5% | B: -12% | C: 0% | D: 10µM* | E: 1%

> C=CCN1C(=O)/C(=C\c2ccco2)C(C(=O)OC)=C1C
  A: 0% | B: 8% | C: 19% | D: ? | E: 1%

> COc1ccccc1CC(=O)Nc1ccc2nc(Nc3cccc(Cl)c3)cc(C)c2c1
  A: -18% | B: ? | C: nt | D: 0% | E: -7%

> Cc1cc(Nc2cccc(C(F)(F)F)c2)nc2ccc(NC(=O)Cc3ccc(Cl)cc3)cc12
  A: ? | B: 16µM* | C: nt | D: -1% | E: ?

> COc1ccc(CC(=O)Nc2ccc3nc(Nc4cccc(Cl)c4)cc(C)c3c2)cc1
  A: ? | B: 26µM* | C: nt | D: 1% | E: 17%

> CN(Cc1ccccc1)c1ncnc2sccc12
  A: 1% | B: 16µM* | C: -14% | D: 3% | E: 6%

> CN(Cc1ccccc1)c1ncnc2[nH]ncc12
  A: 3% | B: -16% | C: nt | D: 0% | E: nt

> CCOc1ccc(C(=O)NCCn2cc(SCC(=O)Nc3ccc4c(c3)OCCO4)c3ccccc32)cc1
  A: -23% | B: ? | C: nt | D: 7% | E: 23%

> Fc1ccccc1NC(=S)Nc1ccc(Br)cc1
  A: ? | B: 23µM* | C: -1% | D: 0% | E: 9%

> O=S(=O)(c1ccccc1)N1CCN(c2nccc(-c3cccs3)n2)CC1
  A: 4% | B: -10% | C: nt | D: nt | E: nt

> O=C(OCC#CCSc1nnc(-c2cccc3ccccc23)o1)c1ccncc1
  A: -5% | B: 0% | C: nt | D: nt | E: nt

> COc1ccc2c(c1)CC/C(=C\c1ccc(C)o1)C2=O
  A: 6% | B: 19% | C: 6% | D: ? | E: -66%

> COc1ccc2c(c1)CC/C(=C/c1ccncc1)C2=O
  A: 2% | B: -30% | C: 6% | D: 22µM* | E: 10%

> CC1C/C(=C/c2ccco2)C(=O)/C(=C/c2ccco2)C1 (stereo unspecified)
  A: nt | B: nt | C: 17% | D: nt | E: 7%

> O=C1/C(=C\c2ccco2)CCC/C1=C\c1ccco1
  A: 0% | B: 8% | C: 12% | D: 10µM* | E: 0%

> CN(CC(=O)Nc1c(Cl)cccc1Cl)C(=O)c1cc(-c2cccs2)nn1-c1ccccc1
  A: 0% | B: -19% | C: 20µM* | D: 0% | E: nt

> COc1ccc(NC(=O)c2sc3nc4c(cc3c2N)CN(Cc2ccccc2)CC4)c(OC)c1
  A: -2% | B: ? | C: nt | D: 1% | E: -5%

> O=c1c2ccccc2c(-c2ccc(O)cc2)nn1-c1cccc(C(F)(F)F)c1
  A: -2% | B: 23µM* | C: ? | D: -2% | E: 1%

> O=C1c2ccccc2NC(c2ccccc2OCc2ccccc2)N1Cc1ccco1 (stereo unspecified)
  A: -14% | B: ? | C: nt | D: nt | E: nt

> COc1ccccc1N1CCN(C(=O)CSc2n[nH]c(-c3ccccc3Cl)n2)CC1
  A: -5% | B: nt | C: nt | D: 1% | E: 8%

> Cc1ccc(Oc2c(C(F)(F)F)oc3cc(OCC(=O)NC4CCCCC4)ccc3c2=O)cc1
  A: -3% | B: 8% | C: nt | D: 0% | E: 0%

> Cc1c(C#N)c(O)n(CCO)c(=O)c1N=Nc1ccc(S(N)(=O)=O)cc1
  A: 15µM* | B: -18% | C: -1% | D: 0% | E: -5%

> COc1ccc(N2CCN(C(=O)Nc3cccc(C(F)(F)F)c3)CC2)cc1
  A: -18% | B: 21µM* | C: -5% | D: 0% | E: 2%

> CN1CCN(C(=S)c2ccc(OCC(=O)Nc3cccc(C(F)(F)F)c3)cc2)CC1
  A: -9% | B: 15µM* | C: -3% | D: 3% | E: 14%

> Cc1cc(N2CCCC2)ccc1NC(=O)COc1cccc(C(F)(F)F)c1
  A: -20% | B: 5.8µM* | C: -4% | D: -1% | E: 14%

> O=C(Nc1ccc2c(c1)OCO2)N1CCN(c2cccc(C(F)(F)F)c2)CC1
  A: -22% | B: 23µM* | C: -10% | D: 0% | E: -4%

Shown with values under each structure: part of the list above.
Sequence of screens: A549 viability, Nrf2 block, Mito fusion act, Nrf2 ARE act, miR-21 reporter
COc1ccc(N2CCN(C(=O)Nc3cccc(C(F)(F)F)c3)CC2)cc1
  -18%, 21µM*, -5%, 0%, 2%
CN1CCN(C(=S)c2ccc(OCC(=O)Nc3cccc(C(F)(F)F)c3)cc2)CC1
  -9%, 15µM*, -3%, 3%, 14%
Cc1cc(N2CCCC2)ccc1NC(=O)COc1cccc(C(F)(F)F)c1
  -20%, 5.8µM*, -4%, -1%, 14%

Compound activity from PubChem BioAssay.
